Results as given in patent US20230158156A1, “BIFUNCTIONAL MOLECULES AND METHODS OF USING THEREOF” (Flagship Pioneering, Inc., priority 2020, published 2023).

Amino acid sequences for entries named in this document (tags omitted).
UniProt Q06187, whole entry, species assumed: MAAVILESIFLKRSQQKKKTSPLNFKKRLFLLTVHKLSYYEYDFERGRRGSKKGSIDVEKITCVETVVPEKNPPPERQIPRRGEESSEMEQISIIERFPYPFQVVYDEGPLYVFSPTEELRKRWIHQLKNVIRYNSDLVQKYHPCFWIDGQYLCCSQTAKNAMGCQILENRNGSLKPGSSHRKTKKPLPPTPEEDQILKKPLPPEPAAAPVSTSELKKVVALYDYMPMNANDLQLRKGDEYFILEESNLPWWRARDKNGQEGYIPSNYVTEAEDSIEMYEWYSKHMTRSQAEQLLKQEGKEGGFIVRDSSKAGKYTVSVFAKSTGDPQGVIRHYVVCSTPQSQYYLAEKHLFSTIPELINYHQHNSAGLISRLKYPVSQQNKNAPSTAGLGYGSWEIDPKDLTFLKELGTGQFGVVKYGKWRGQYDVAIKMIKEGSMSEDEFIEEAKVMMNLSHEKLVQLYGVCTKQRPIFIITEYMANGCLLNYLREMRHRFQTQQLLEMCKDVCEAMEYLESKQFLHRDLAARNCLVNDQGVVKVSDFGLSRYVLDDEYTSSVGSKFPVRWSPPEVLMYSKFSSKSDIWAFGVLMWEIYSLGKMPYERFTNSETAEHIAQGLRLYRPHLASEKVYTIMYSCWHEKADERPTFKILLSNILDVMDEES

Biological target: purified BTK protein and Cy5-labeled IVT RNA (Homo sapiens, UniProt Q06187)
Assay: In vitro ternary complex formation assay (PAGE gel shift)
Assay type: binding
Conditions: 10 pmol ASOi, PBS, room temperature 90 minutes; for supershift of BTK protein band in the presence of Cy5-IVT RNA (ternary complex formation): 2 pmol BTK protein, 20 pmol Cy5-labeled IVT RNA
Method: A ternary complex is a complex containing three different molecules bound together. […] An inhibitor-conjugated antisense oligonucleotide (hereafter referred to as ASOi) (i.e., EGFR ASO conjugated to Ibrutinib-MPEA) was mixed with the protein target of the inhibitor (i.e., BTK) and the RNA target of the ASO (i.e., EGFR RNA), and allowed to react with the protein and hybridize with the RNA target to form a ternary complex including all 3 molecules. The same is also performed with MALATI targeting ASO with the sequence 5′CGUUAACUAGGCUUUA3′ (SEQ ID NO: 1) conjugated at the 5′ end with Ibrutinib (BTK inhibitor; BTKi) and the RNA target of the ASO (i.e., MALATI RNA) as shown in FIG. 2A. FIG. 2B depicts the gel analysis results detecting the formation of the ternary complex, binding of the ASOi to the target protein caused the protein to migrate higher (shift up) on a polyacrylamide gel because of its increased molecular weight. […] Furthermore, labeling the target RNA with a fluorescent dye allowed direct visualization of the target RNA in the supershifted protein complex.
In one reaction (#1), 10 pmol of the MALATI targeting ASO (hereafter called N33-ASOi) conjugated at the 5′ end with Ibrutinib was mixed in PBS with 2 pmol purified BTK protein, 200 pmol yeast rRNA (as non-specific blocker) and 20 pmol Cy5-labeled IVT RNA of the following sequence:
All reactions were incubated at room temperature for 90 minutes protected from light, then mixed with a loading buffer containing 0.5% SDS final and 10% glycerol final, and complexes separated by PAGE on a Bis-Tris 4-12% gel including an IRDye700 pre-stained protein molecular weight marker (LiCor). Immediately following electrophoresis, the gel was imaged using a LiCor Odyssey system with the 700 nm channel to identify the position of Cy5-IVT-RNA bands and MW marker. Next, proteins in the gel were stained using InstantBlue colloidal Coomassie stain (Expedeon) and re-imaged using transmitted light. […]

| Substance | supershift of BTK protein band in the presence of Cy5-IVT RNA (ternary complex formation) | increase in MW of the BTK protein band (binary complex formation) (2 pmol purified BTK protein, Coomassie stain) |
| --- | --- | --- |
| N33-ASOi: MALATI targeting ASO 5′CGUUAACUAGGCUUUA3′ (SEQ ID NO: 1) conjugated at the 5′ end with Ibrutinib (antisense cguuaacuaggcuuua; 5' Ibrutinib conjugate; antisense oligonucleotide (ASO)) | observed with N33-ASOi | increase in MW of the BTK protein band |
| SCR-ASOi: non-complementary RNA oligo 5′AGAGGUGGCGUGGUAG3′ (SEQ ID NO:21) conjugated at the 5′ end with Ibrutinib (agagguggcgugguag; 5' Ibrutinib conjugate; SCR-ASOi) [reference compound] | not with SCR-ASOi | – |
